ChEMBL document CHEMBL1817572, “New, potent, selective, and short-acting peptidic V1a receptor agonists” (J Med Chem, 2011)

Chains of the proteins cited; added tags and fusions are not shown.
UniProt P37288, whole entry: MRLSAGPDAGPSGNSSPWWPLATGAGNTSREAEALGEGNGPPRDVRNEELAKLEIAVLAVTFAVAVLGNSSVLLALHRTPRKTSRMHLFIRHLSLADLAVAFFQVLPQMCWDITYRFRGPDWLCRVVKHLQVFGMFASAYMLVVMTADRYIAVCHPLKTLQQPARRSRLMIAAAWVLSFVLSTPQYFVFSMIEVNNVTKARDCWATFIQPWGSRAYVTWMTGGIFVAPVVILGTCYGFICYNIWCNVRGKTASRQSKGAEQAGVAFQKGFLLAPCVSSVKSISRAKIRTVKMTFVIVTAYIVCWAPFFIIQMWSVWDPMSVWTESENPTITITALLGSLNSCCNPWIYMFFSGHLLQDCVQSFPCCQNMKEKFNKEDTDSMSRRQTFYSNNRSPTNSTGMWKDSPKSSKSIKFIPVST

Target: Vasopressin V1a receptor (Homo sapiens, UniProt P37288)
Test: Agonist activity at recombinant human vasopressin V1a receptor expressed in HEK293 cells by luciferase reporter gene assay
Format: functional, cell-based

`CC[C@H](C)[C@@H]1NC(=O)[C@H](Cc2ccccc2)NC(=O)[C@@H](N)CSSC[C@@H](C(=O)N2CCC[C@H]2C(=O)N[C@@H](CCCN)C(=O)NCC(N)=O)NC(=O)[C@H](CC(N)=O)NC(=O)[C@H](CCC(N)=O)NC1=O` showed an EC50 of 0.27 nM.
